Hits are enriched below; roughly 2.3% of the tested compounds scored in any of these assays.
Mito fusion act: blocks mitochondrial division or promotes mitochondrial fusion; S. cerevisiae fusion-defective mutant growth rescue, CellTiterGlo 48 h; Potency, µM (top dose mostly 46.1 µM), most hits filed as activators; actives 0.23% (n = 320,000); note: nearly all actives have a fitted effect of over 45% in size
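S. cerevisiae fusion-defective temperature-sensitive mutants (e.g. fzo1-1, mgm1-5) grown 48 h at 37C in YPEG (ethanol/glycerol non-fermentable) medium with 23 nl compound per well; growth rescue read as CellTiterGlo luminescence.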
Nrf2 activator: activates Nrf2 signaling. actives 0.31% (n = 410,000). AID 624171. AREc32 ARE-luciferase reporter (MCF7-derived line), luminescence, 24 h. Potency, µM (titrated, usually from 46.1 µM), hits mostly activators; note: nearly all actives have a fitted effect of over 65% in size
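ARE-driven firefly luciferase activity in AREc32 cells measured after a 24 hr compound exposure at 37 deg C, using Steady-Glo reagent and a 30 min room-temperature hold.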
Nrf2 inh: Nrf2 pathway inhibition; A549 ARE-Fluc reporter, luciferase luminescence, 18-24 h; actives 2.1% (n = 360,000); Potency, µM (titrated, usually from 46 µM), most hits filed as inhibitors; AID 504444; note: nearly all actives have a fitted effect of over 60% in size
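A549 ARE_Fluc cells, 5000/well, 5% FBS OPTI-MEM; compounds in dose-response, 18-24 h at 37 °C/5% CO2; CellTiter-Fluor viability read (Ex 405/Em 525), then BugLite luciferase luminescence = Nrf2 activity.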
miR-21 reporter: raises the signal of a miR-21 reporter | HeLa miR-21 FLuc reporter, luciferase, 48 h | 340,000 tested, under 10 active | Potency, µM (titrated, usually from 38.3 µM); active = well fitted rising curve with a large enough effect; inconclusive = small, poorly fitted or top-dose-only effect; inactive = no such curve, though single readings can be large or run the other way;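 further: miR-21 action dims this reporter so a rising signal means less miR-21 action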
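HeLa miR-21-FLuc reporter line, endogenous miR-21; 2000 cells/well in DMEM/10% FBS; compound titration up to ~40uM final, 48 h, 37 degree Celsius; luciferase detection reagent, 15 min lysis, CCD luminescence.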
A549 viability: kills or reduces viability of A549 cells in Nrf2 counter-screen | A549 ARE-Fluc cells, CellTiter-Fluor viability, 18-24 h | Potency, µM (top dose mostly 46 µM), usual class: inhibitors | actives 0.16% (n = 390,000)
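A549 ARE_Fluc cells in 5% FBS OPTI-MEM were exposed to compounds in concentration-response for 18-24 h at 37 deg C. Viability was read by CellTiter-Fluor fluorescence (Ex 405/Em 525) after 30 min, before the luciferase read.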
Of the large screens only hits and unclear results are named; the others gave an inactive call. Unless noted, calls come from the whole dose curve; as a rule, active = well fitted curve in the direction sought with a large enough effect; inconclusive = small, poorly fitted or top-dose-only effect, or another doubt; inactive = no such curve, though single readings can be large; an effect the other way counts as inactive or inconclusive.

COc1ccc(CNC(=O)c2c(N)n(CCCN3CCOCC3)c3nc4ccccc4nc23)cc1	Nrf2 inh 16µM, miR-21 reporter inconclusive (no result: A549 viability)
CC(=O)N1c2ccc(S(=O)(=O)Nc3ccc(C)c(C)c3)cc2CC1C (stereo unspecified)	Nrf2 inh 10µM, A549 viability inconclusive (no result: Mito fusion act, Nrf2 activator, miR-21 reporter)
COc1ccc(S(=O)(=O)Nc2ccc3c(c2)N(C(C)=O)CCC3)cc1	Nrf2 inh 12µM (no result: miR-21 reporter)
COc1cccc(NS(=O)(=O)c2ccc3c(c2)CCN3C(C)=O)c1	Nrf2 inh 10µM
CCc1cccc(NS(=O)(=O)c2ccc3c(c2)CC(C)N3C(=O)C2CC2)c1 (stereo unspecified)	Nrf2 inh 12µM (no result: Mito fusion act)
CSc1cccc(NS(=O)(=O)c2ccc3c(c2)CCN3C(C)=O)c1	Nrf2 inh inconclusive
CC(=O)N1c2ccc(S(=O)(=O)Nc3ccc(C)c(Cl)c3)cc2CC1C (stereo unspecified)	Nrf2 inh inconclusive (no result: Mito fusion act)
N#Cc1nc(NCCCCO)nc(Nc2ccccc2)n1	none (no result: Mito fusion act, Nrf2 activator, miR-21 reporter)
COc1ccc2c(c1)c1nnc(SCCN3CCOCC3)nc1n2C	none (no result: Mito fusion act, Nrf2 activator, miR-21 reporter)
CCCC(=O)OC1=CN(Cc2ccccc2)S(=O)(=O)c2ccccc21	none (no result: Mito fusion act)
COc1ccc(N/N=C(/C(C)=O)N2CCCc3ccccc32)cc1	Nrf2 inh 6.5µM
CC(=O)N1CCc2cc(S(=O)(=O)Nc3cccc(C(F)(F)F)c3)ccc21	Nrf2 inh 9.2µM
CC(=O)N1CCCc2cc(S(=O)(=O)Nc3ccc(C)c(F)c3)ccc21	Nrf2 inh inconclusive (no result: Mito fusion act)
COc1ccc(NC(=O)N2CCCc3ccccc32)cc1	none (no result: A549 viability)
CC(=O)N1CCc2cc(S(=O)(=O)Nc3ccc(C)c(C)c3)ccc21	Nrf2 inh 15µM (no result: Mito fusion act, Nrf2 activator, miR-21 reporter)
CC(=O)N1CCc2cc(S(=O)(=O)Nc3ccc(C)cc3)ccc21	Nrf2 inh inconclusive
CC1CN(C(=O)c2ccc(S(=O)(=O)Nc3cccc(C(F)(F)F)c3)cc2)CC(C)O1 (stereo unspecified)	Nrf2 inh 13µM (no result: miR-21 reporter)
CN(C)c1ccc(-c2nn3c(-c4cc(-c5ccccc5)n[nH]4)nnc3s2)cc1	none (no result: Mito fusion act, Nrf2 activator, miR-21 reporter)
COc1cc(NS(=O)(=O)c2cc3c(cc2C)N(C)CCO3)cc(OC)c1OC	none (no result: Mito fusion act)
Cc1ccc(CN(C(=O)COc2ccc(Cl)c(C)c2)C2CCS(=O)(=O)C2)o1 (stereo unspecified)	none (no result: Mito fusion act)
Cc1nnc(SCc2ccc(Cl)cc2)c2cc3occc3n12	Nrf2 inh inconclusive, A549 viability inconclusive (no result: Mito fusion act)
C=Cc1ccc(CSc2nnc(C)n3c2cc2occc23)cc1	Nrf2 inh 18µM (no result: Mito fusion act)
Cc1c(C(=O)NCCSCc2ccccc2Cl)cccc1[N+](=O)[O-]	Nrf2 inh inconclusive
Cc1c(C(=O)NCCSCc2c(Cl)cccc2Cl)cccc1[N+](=O)[O-]	Nrf2 inh 9.2µM
O=C(NCc1ccco1)c1ccccc1NS(=O)(=O)c1ccc(Cl)s1	Nrf2 inh inconclusive
O=C(Nc1ccccc1)c1ccccc1NS(=O)(=O)c1ccc(Cl)s1	Nrf2 inh 18µM, miR-21 reporter inconclusive, A549 viability inconclusive
O=C(Nc1ccccc1Cc1ccccc1)c1ccccc1NS(=O)(=O)c1ccc(Cl)s1	Nrf2 inh 18µM, miR-21 reporter inconclusive, A549 viability inconclusive
Cc1ccc(NC(=O)c2ccccc2NS(=O)(=O)c2ccc(Cl)s2)cc1	Nrf2 inh 16µM, miR-21 reporter inconclusive, A549 viability inconclusive
CC(C)CC(=O)NC(NC(=S)Nc1ccccc1)C(Cl)(Cl)Cl (stereo unspecified)	none
O=C(CCc1ccccc1)NC(NC(=S)Nc1ccc(Cl)cc1)C(Cl)(Cl)Cl (stereo unspecified)	Nrf2 inh 15µM, A549 viability inconclusive
O=C(NC(NC(=S)Nc1cccc(Cl)c1)C(Cl)(Cl)Cl)OCc1ccccc1 (stereo unspecified)	Nrf2 inh 16µM, miR-21 reporter inconclusive, A549 viability inconclusive
CC(C)(C)NS(=O)(=O)c1ccc(NC(=O)C(Sc2ccccc2)c2ccccc2)cc1 (stereo unspecified)	Nrf2 inh 9.2µM, A549 viability inconclusive
CC(C)(C)c1ccc(C(=O)NCC(=O)OC(C(=O)Nc2cc(C(F)(F)F)ccc2Cl)c2ccccc2)cc1 (stereo unspecified)	Nrf2 inh inconclusive (no result: Mito fusion act, Nrf2 activator, miR-21 reporter)
CCOc1cc(/C=N/O)ccc1OCc1ccc([N+](=O)[O-])cc1	none
CCOc1cc(C=C(C(=O)OC)C(=O)OC)ccc1OCc1ccc([N+](=O)[O-])cc1	Nrf2 inh 18µM, miR-21 reporter inconclusive, A549 viability inconclusive
C1=C(CCNc2ncnc3c2[nH]c2ccccc23)CCCC1	Nrf2 inh 5.2µM
CCOc1ccc2[nH]c3c(NCCCOC)ncnc3c2c1	none
CC(C)OCCCNc1ncnc2c1[nH]c1ccccc12	Nrf2 inh 12µM
O=c1c2[nH]c3ccccc3c2ncn1Cc1ccco1	none
CCc1cc2c(NCc3ccco3)ncnc2s1	Nrf2 activator 3.5µM, Nrf2 inh inconclusive
c1coc(CNc2ncnc3c2[nH]c2ccccc23)c1	Nrf2 inh 16µM (no result: Mito fusion act, Nrf2 activator, miR-21 reporter)
CCc1cc2c(NCC(=O)O)ncnc2s1	none
CC(=O)N1CCc2c(sc3c2c(=O)n(-c2ccccc2Cl)c(=O)n3Cc2cccc(C)c2)C1	none (no result: Mito fusion act, Nrf2 inh)
COc1cccc(C(c2sc3nc(-c4ccco4)nn3c2O)N2CCN(c3ccccc3F)CC2)c1 (stereo unspecified)	none (no result: Mito fusion act, Nrf2 inh)
Cc1ccc(Cl)cc1NS(=O)(=O)c1cc2c(cc1F)NC(=O)CC2	none (no result: Mito fusion act, Nrf2 activator, miR-21 reporter)
COc1cc2c(cc1OC)C(c1ccc(Cl)cc1)N(c1cccc(C#N)c1)C(=O)C2 (stereo unspecified)	Nrf2 inh inconclusive (no result: Mito fusion act)
Cc1ccc2[nH]c3c(NCc4ccccc4)ncnc3c2c1	Nrf2 inh 5.2µM, A549 viability 18µM
COc1ccc(CNc2ncnc3c2[nH]c2cc(OC)c(OC)cc23)cc1	none
O=C(O)c1cccc(S(=O)(=O)N2CCN(S(=O)(=O)c3ccc4c(c3)OCCO4)CC2)c1	none (no result: Mito fusion act, Nrf2 activator, miR-21 reporter)
COc1ccc(-c2cc3nc(C)c(CCC(=O)Nc4ccccc4C(C)=O)c(C)n3n2)c(OC)c1	Nrf2 inh inconclusive (no result: Mito fusion act)
CCOC(=O)c1ccc(NC(=O)c2nc[nH]c2C(=O)N[C@H](C)c2ccccc2)cc1	Nrf2 inh 16µM, A549 viability inconclusive
Cc1ccc(NC(=O)c2nc[nH]c2C(=O)N[C@H](C)c2ccccc2)cc1	Nrf2 inh inconclusive (no result: miR-21 reporter)
CC(C)(C)OC(=O)NCc1ccc(CNC(=O)c2[nH]cnc2C(=O)N[C@@H](Cc2ccccc2)C(=O)OC(C)(C)C)cc1	Nrf2 inh 23µM
CC(C)(C)OC(=O)NCCCC[C@H](NC(=O)c1[nH]cnc1C(=O)Nc1ccccc1)C(=O)OC(C)(C)C	Nrf2 inh inconclusive
C[C@@H](NC(=O)c1nc[nH]c1C(=O)N[C@@H](CCCCNC(=O)OC(C)(C)C)C(=O)OC(C)(C)C)c1ccccc1	Nrf2 inh 16µM, miR-21 reporter inconclusive, A549 viability inconclusive

Assay outcomes (PubChem BioAssay)
